BindingDB's records for doi:10.1073/pnas.90.21.10365 (Merck Research Laboratories, 1993)
Several values for one entry are separate records, joined by “and”; a condition that tells them apart may be missing. Equal entries are not always repeated.

Sequences of proteins named here, by UniProt entry; tags and fusion partners are left off.
UniProt P0DMS8, whole entry: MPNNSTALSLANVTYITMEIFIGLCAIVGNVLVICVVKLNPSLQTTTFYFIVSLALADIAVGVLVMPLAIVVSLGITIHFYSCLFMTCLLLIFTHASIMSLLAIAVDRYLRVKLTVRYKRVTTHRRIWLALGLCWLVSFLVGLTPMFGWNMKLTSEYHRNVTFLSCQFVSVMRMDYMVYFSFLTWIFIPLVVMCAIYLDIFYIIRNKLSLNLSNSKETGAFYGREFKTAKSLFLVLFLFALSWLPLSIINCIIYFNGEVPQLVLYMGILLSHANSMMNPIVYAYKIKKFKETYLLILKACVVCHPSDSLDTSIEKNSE

Target: Adenosine receptor A3 (Homo sapiens, UniProt P0DMS8)

Ki: 33.9 nM and 324 nM
Compound: CC(Cc1ccccc1)Nc1ncnc2c1ncn2C1OC(CO)C(O)C1O (stereo unspecified) [R-N6-(2-phenylisopropyl) adenosine]
